Compound activity deposited in PubChem BioAssay by Broad Institute.
In the library only some 2.1% were active in any assay of this set; here they are far more common.
Wnt bcat act: activators of Wnt/beta-catenin signaling. activation, % at 9.35 µM. AID 743398. Wnt/beta-catenin reporter cell assay, activator, plate reader. 300,000 tested, 1.2% active; in the data active means activation above about 30%, passing the limit was not always enough;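 further: 0% = neutral control wells and 100% = positive control wells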
MITF TRPM1 inh: reduces MITF-dependent TRPM1 promoter luciferase signal | inhibition, % at 12.5 µM | AID 488899 | 330,000 tested, 0.83% active | SK-MEL-5 TRPM1 promoter luciferase, 24 h;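 active means mean inhibition across replicates of 60% or more, whatever share of single replicates reaches that level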
miR-122 sensor: inhibitors of miR-122 in Huh7 cells; activation (reporter increase), % at 12.5 µM; AID 602342; Huh7 miR-122 Renilla luciferase sensor, 48 h; neutral wells = 0, positive control = 100; 340,000 tested, 0.3% active;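 active means mean replicate activation score at least 90 and every replicate individually at or above 90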;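 further: higher luciferase means less miR-122 activity so hits act as miR-122 inhibitors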
MITF TRPM1 HTS: activators of MITF-driven TRPM1 promoter activity in SK-MEL-5 cells | activation, % at 12.5 µM | 300,000 tested, 0.75% active | SK-MEL-5 TRPM1-promoter luciferase, 24 h; % of positive control, neutral wells = 0 | AID 588334;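 active means mean activation of at least 80% with every replicate also reaching 80%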;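 further: 0% = neutral control wells and 100% = parthenolide positive control wells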
PGC1a acetyl inh: modulators of PGC1a acetylation | U2OS PGC1a acetylation, AlphaScreen anti-acetyl-lysine; with virally co-expressed GCN5 acetyltransferase | inhibition, % at 15.6 µM | 350,000 tested, 0.17% active;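 active means every replicate shows inhibition of at least 40%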;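 further: 0% = neutral control wells and 100% = positive control wells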
UUG fidelity: alters start codon recognition fidelity in yeast. S. cerevisiae UUG-firefly luciferase reporter, luminescence/redox ratio. 350,000 tested, 0.13% active. activity score, % at 18.7 µM. AID 602363;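 active means replicate mean at a twofold rise or more, about +100% in these data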;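 further: firefly luciferase made from a UUG start codon reports start codon fidelity; reporter light over untreated wells divided by growth signal over untreated wells; some hits fall short of that in this replicate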
The depositor's hits bear a star; / = no result; [ ] = dose if it differs, or a comment.

Wnt bcat act,MITF TRPM1 inh,miR-122 sensor,MITF TRPM1 HTS,PGC1a acetyl inh,UUG fidelity,compound
-2.5,94.1*,-0.5,-93.9,-8.5,-4.2,CC(C)(C)c1ccc(C(O)CCCN2CCC(C(O)(c3ccccc3)c3ccccc3)CC2)cc1 (stereo unspecified)
1.2,65.2*,0.8,-66.4,7.0,-28.3,Nc1nc(Cl)cc(N2CCC(c3cc(-c4ccc(Cl)cc4)n[nH]3)CC2)n1
0.8,98.3*,/,-98.5,/,/,O=C1c2cc(F)ccc2-n2c1nc1ccccc1c2=O
0.7,/,-0.9,/,/,-13.8,Nn1c(-c2ccc(F)cc2)nc2ccccc2c1=O
15.7,-87.0,-3.5,93.6*,17.1,-23.1,Cc1ccc(NC(=O)C2C3/C=C\CCCCC32)cc1 (stereo unspecified)
36.6*,-88.2,/,98.4*,/,-10.5,CCOC(=O)c1ccc(NC(=O)N2CCCCCC2)cc1
2.7,-80.2,5.3,82.2*,4.3,-27.7,CCOC(=O)c1ccc(NC(=O)C2C3CCCCC32)cc1 (stereo unspecified)
/,-100.7,-0.6,104.6*,2.9,2.1,CC(C)(C)C(=O)Nc1ccc(C(=O)OC2CCCCC2)cc1
/,/,0.0[16.7 µM],/,3.2,-13.6,CCCNC(=O)C[C@@H]1C[C@H]2c3cc(NC(=O)c4cccnc4)ccc3O[C@H]2[C@@H](CO)O1
/,/,1.2[16.7 µM],/,-9.4,17.7,C[C@H](CO)N1C[C@H](C)[C@@H](CN(C)Cc2ccc3c(c2)OCO3)Oc2ccc(NC(=O)Nc3cccc4ccccc34)cc2CC1=O

Further entries.
Wnt bcat act,MITF TRPM1 inh,miR-122 sensor,MITF TRPM1 HTS,PGC1a acetyl inh,UUG fidelity,compound
34.7*,-64.3,-0.4,57.0,-5.6,-15.1,CCCCc1ccc(-c2nc(N)n[nH]2)cc1
/,/,9.3[16.7 µM],/,-7.4,10.7,CNC(=O)C[C@H]1CC[C@H]2[C@H](COc3ccc(NC(=O)Nc4ccccc4)cc3C(=O)N2C)O1
-2.4,-138.2,/,141.2*,-13.8,-23.8,COc1ccccc1C(=O)OCCc1ccccc1
-3.5,-15.2,-12.0,18.2,-1.0,/,COc1ccccc1C(=O)Cc1ccccc1
/,/,-28.6[16.7 µM],/,-3.5,44.3,CO[C@H]1CN(C)C(=O)c2cc(NC(=O)c3ccccc3)ccc2OC[C@@H](C)N(C(C)=O)C[C@@H]1C
/,78.8*,-5.7,-78.3,63.4*,-7.9,CC1CC(=O)c2c(cc3c(-c4c(O)cc(O)c5c(O)c6c(cc45)OC(C)CC6=O)c(O)cc(O)c3c2O)O1 (stereo unspecified)
/,/,-1.8[16.7 µM],/,16.4,4.5,C[C@@H]1CN([C@@H](C)CO)C(=O)c2cc(C#C[C@@H](C)O)cnc2O[C@@H]1CN(C)C(=O)c1ccccc1F
/,95.4*,/,-95.6,/,/,COc1ccc(C(=O)C(CCC(CNC(C)(C)C)C(=O)c2ccc(OC)cc2)CNC(C)(C)C)cc1 (stereo unspecified)
/,/,/,/,-8.4,/,CCC(=O)N1CCC2(CC1)CN(C(=O)Nc1ccccc1F)[C@H](CO)c1c2c2ccc(OC)cc2n1C
38.0*,-75.8,-6.4,77.1,5.6,-30.8,O=C(NCCn1ccc2ccccc21)c1ccc2c(c1)OCO2

Remaining list, next part
Wnt bcat act,MITF TRPM1 inh,miR-122 sensor,MITF TRPM1 HTS,PGC1a acetyl inh,UUG fidelity,compound
0.3,-15.9,/,15.7,/,/,Cc1ccc(C(=O)NCCn2ccc3ccccc32)cc1[N+](=O)[O-]
/,-98.5,-3.3,97.6*,11.9,-28.4,COc1ccc(C(=O)NCCn2ccc3ccccc32)cc1
/,/,/,/,4.2,/,CCCNC(=O)N1CC2(C1)CN(C(=O)NC(C)C)[C@H](CO)c1c2c2ccc(OC)cc2n1C
43.8*,-43.3,11.3,/,4.1,-18.4,Cc1ccc(-c2nc3ccccc3nc2NN)cc1
19.7,-12.5,/,12.9,5.6,/,Cc1ccc(-c2nc3ccccc3nc2Cl)cc1
/,/,1.1[16.7 µM],/,23.6,3.8,C[C@@H]1CCCCO[C@H](CN(C)C)[C@@H](C)CN([C@H](C)CO)C(=O)c2cc(NC(=O)C3CCCCC3)ccc2O1
-12.3,82.0*,-24.0,-81.4,-31.4,-15.0,COc1cc(CNC2CCCC2)cc(Cl)c1OCc1ccccc1Cl
/,/,276.3*[16.7 µM],/,-4.5,20.7,Cc1cc(C(=O)Nc2cccc3c2O[C@H](CN(C)Cc2ccc(C(F)(F)F)cc2)[C@@H](C)CN([C@H](C)CO)C3=O)n(C)n1
/,/,-10.2[16.7 µM],/,8.1,-10.3,C[C@H]1CN([C@@H](C)CO)C(=O)c2cccc(NC(=O)c3ccncc3)c2O[C@H]1CN(C)S(C)(=O)=O
/,/,152.2*[16.7 µM],/,26.0,11.4,C[C@@H]1CN([C@@H](C)CO)C(=O)c2cccc(NC(=O)c3cnccn3)c2O[C@H]1CN(C)Cc1ccc(C(F)(F)F)cc1

Some of these compounds in order of the Wnt bcat act value, smallest number first.
Wnt bcat act,MITF TRPM1 inh,miR-122 sensor,MITF TRPM1 HTS,PGC1a acetyl inh,UUG fidelity,compound
0.3,-15.9,/,15.7,/,/,Cc1ccc(C(=O)NCCn2ccc3ccccc32)cc1[N+](=O)[O-]
19.7,-12.5,/,12.9,5.6,/,Cc1ccc(-c2nc3ccccc3nc2Cl)cc1
43.8*,-43.3,11.3,/,4.1,-18.4,Cc1ccc(-c2nc3ccccc3nc2NN)cc1

The listing picks up with the 3 entries that preceded the break.
Wnt bcat act,MITF TRPM1 inh,miR-122 sensor,MITF TRPM1 HTS,PGC1a acetyl inh,UUG fidelity,compound
/,/,276.3*[16.7 µM],/,-4.5,20.7,Cc1cc(C(=O)Nc2cccc3c2O[C@H](CN(C)Cc2ccc(C(F)(F)F)cc2)[C@@H](C)CN([C@H](C)CO)C3=O)n(C)n1
/,/,-10.2[16.7 µM],/,8.1,-10.3,C[C@H]1CN([C@@H](C)CO)C(=O)c2cccc(NC(=O)c3ccncc3)c2O[C@H]1CN(C)S(C)(=O)=O
/,/,152.2*[16.7 µM],/,26.0,11.4,C[C@@H]1CN([C@@H](C)CO)C(=O)c2cccc(NC(=O)c3cnccn3)c2O[C@H]1CN(C)Cc1ccc(C(F)(F)F)cc1
/,/,166.0*[16.7 µM],/,2.1,33.0,Cc1noc(C)c1S(=O)(=O)N(C)C[C@@H]1Oc2c(NC(=O)c3cnccn3)cccc2C(=O)N([C@@H](C)CO)C[C@@H]1C
/,/,112.0*[16.7 µM],/,-6.7,-0.6,C[C@@H]1CN([C@@H](C)CO)C(=O)c2cccc(NC(=O)c3ccncc3)c2O[C@@H]1CN(C)C
/,/,-4.4[16.7 µM],/,-3.1,4.0,Cc1cc(C(=O)Nc2cccc3c2O[C@H](CN(C)Cc2ccc(C(F)(F)F)cc2)[C@H](C)CN([C@@H](C)CO)C3=O)n(C)n1
/,/,22.0[16.7 µM],/,-4.1,2.1,CCCC#Cc1cnc2c(c1)C(=O)N([C@@H](C)CO)C[C@H](C)[C@H](CN(C)C(=O)c1ccccc1)O2
/,/,212.6*[16.7 µM],/,-11.9,12.5,C[C@@H]1CN([C@@H](C)CO)C(=O)c2cccc(NC(=O)c3ccc(-c4nccs4)cc3)c2O[C@@H]1CN(C)Cc1ccc(C(=O)Nc2ccccc2N)cc1
/,/,107.5*[16.7 µM],/,1.3,5.1,C[C@H]1CN([C@@H](C)CO)C(=O)c2cccc(NC(=O)c3ccncc3)c2O[C@@H]1CN(C)Cc1ccc(C(F)(F)F)cc1
/,/,3.4[16.7 µM],/,4.9,/,O=C(NCC1CCCCC1)[C@H]1[C@H](CO)[C@H]2Cn3c(cccc3=O)[C@H]2N1Cc1ccccn1
-6.3,77.2*,-8.6,-74.9,5.8,-15.5,CN(Cc1ccccc1)C1=CC(=[N+]2CCCC2)CC(C)(C)C1
-1.0,4.9,0.2,-4.8,/,154.3*,CC(C)C[C@@H](CNCC(=O)[C@H](Cc1c[nH]c2ccccc12)NC(=O)c1[nH]cnc1C(=O)N[C@@H](C)CN)NC(=O)c1nc[nH]c1C(=O)N[C@@H](CC(=O)O)C(=O)O
-4.2,0.6,-3.0,-1.5,-4.9,0.3,CC(C)C[C@@H](CNCC(=O)[C@H](Cc1ccccc1)NC(=O)c1[nH]cnc1C(=O)N[C@@H](C)CN)NC(=O)c1nc[nH]c1C(=O)N[C@@H](CC(=O)O)C(=O)O
-1.9,9.8,6.0,-11.1,/,141.4*,CC(C)C[C@@H](CNCC(=O)[C@H](Cc1c[nH]c2ccccc12)NC(=O)c1[nH]cnc1C(=O)N[C@@H](C)CN)NC(=O)c1nc[nH]c1C(=O)N[C@@H](C)C(=O)O
-1.0,5.7,1.3,-6.8,/,154.2*,CC(C)C[C@@H](CNCC(=O)[C@H](Cc1c[nH]c2ccccc12)NC(=O)c1[nH]cnc1C(=O)N[C@H](CN)CC(C)C)NC(=O)c1nc[nH]c1C(=O)N[C@@H](CC(=O)O)C(=O)O
/,/,2.1[16.7 µM],/,-5.7,-8.8,Cc1ccccc1S(=O)(=O)N1CCCCN2[C@H](CO)[C@@H](c3ccc(-c4ccccc4)cc3)[C@H]2C1
